Source: patent US20190300576A1

Molecular target: monoclonal ANTI-FLAG M2 antibody
Experiment: BLI

## Flag peptide (57a)
  Kd: 15 nM
